Binding of CDR-mutated scFvs to a peptide of the spike HR2 region

Source: Engelhart et al. 2022 (doi:10.1038/s41597-022-01779-4), MIT Lincoln Laboratory and A-Alpha Bio; data file from the FLAb repository.

The target is the same throughout: PDVDLGDISGINAS, from the HR2 region of SARS-CoV-2 spike.

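Library AAYL51 holds single substitutions and randomly drawn double and triple substitutions in the CDRs. In AlphaSeq, yeast of one mating type display the scFv and yeast of the other type display the target. Mating (16 h, 30 °C) was followed by selection of diploids and sequencing of their barcodes. Scores were corrected for input abundance and mapped to Kd with protein pairs of known affinity run in the same pool. Mating was done three times.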

The variants keep the light chain, the linker and the frameworks of Ab-91 (scFv order VL, a 15-residue (Gly4Ser)3 linker, VH).
VL: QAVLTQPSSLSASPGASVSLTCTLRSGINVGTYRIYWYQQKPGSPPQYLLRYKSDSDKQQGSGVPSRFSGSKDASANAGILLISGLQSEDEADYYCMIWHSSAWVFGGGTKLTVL
VH: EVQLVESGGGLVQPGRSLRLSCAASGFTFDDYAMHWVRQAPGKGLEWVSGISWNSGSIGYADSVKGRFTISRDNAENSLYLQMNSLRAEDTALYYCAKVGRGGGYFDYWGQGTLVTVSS

Substitutions are numbered in sequence along the VH above, starting at 1 (not Kabat).
The read-out is the apparent dissociation constant on a log10 scale (nM): the lower, the stronger.
A pair that was not seen in that replicate is written "nd"; this usually means weak binding, but a binder can also be missed.

changes,"log10 Kd, replicates",signal with controls
D31M D107K,4.52 3.37 3.95,0/9
F29D I58E G103R,3.75 5.02 3.80,2/9 (4.39)
S52R N54R V64Q,4.32 4.19 nd,6/9 (5.03)
G59L G104H D107K,nd nd nd,2/9 (3.52)
M34W G50V S57C,nd nd nd,0/9
G50E I51N G59E,nd nd nd,1/9 (3.00)
F27I A61N Y108Q,3.96 4.14 4.63,5/9 (5.34)
M34C N54R Y105S,nd nd nd,1/9 (3.23)
G103H D107H Y108R,1.12 1.48 0.80,1/9 (3.75)
G56L V64C V99K,3.33 nd nd,2/9 (4.32)
H35P S55Y Y60G,nd 4.95 nd,3/9 (4.83)
G56V S57I R101H,nd nd nd,3/9 (4.10)
D30M W53R S55R,nd nd nd,3/9 (3.98)
G26Q G100M,nd 3.94 3.51,4/9 (4.54)
T28L D30M S63I,2.84 1.86 2.07,0/9
Y32S W53T G59W,nd nd nd,5/9 (4.93)
Y108F,3.61 nd nd,1/9 (3.88)
D30I A61Y Y105N,4.20 5.18 3.78,1/9 (4.09)
D31P Y32V I58W,nd nd nd,6/9 (4.55)
T28Q I58A D107I,nd nd 5.42,2/9 (3.98)
D31V A33H V64E,nd nd nd,0/9
D31Y W53Y V99H,1.37 1.39 0.62,1/9 (4.68)
G26T T28H V99K,nd nd nd,0/9
A61F D62H G104E,nd nd nd,0/9
D62C K65W R101T,3.70 4.01 3.83,2/9 (4.42)
S52N N54T I58A,nd nd nd,2/9 (3.76)
G26W F29W G56F,nd 5.22 nd,1/9 (4.87)
S57C F106Q,5.09 4.13 nd,0/9
T28Y S57H D107G,nd nd 3.65,1/9 (4.27)
I58Q Y60L D62K,4.91 nd 4.61,3/9 (4.21)
F27A S52G F106K,nd 3.58 nd,0/9
N54A G59A D107A,4.48 5.66 nd,3/9 (3.72)
Y105E F106N,4.40 5.47 4.94,2/9 (4.04)
F29I A61Q G103C,nd nd nd,0/9
F29I K65Q F106S,nd nd nd,0/9
F27C Y105I,nd nd nd,0/9
G50W K65W,4.25 nd 4.69,4/9 (5.22)
D30A Y32L I58T,nd nd nd,0/9
I51W D62C R101M,nd nd nd,0/9
Y32Q A61F S63G,nd nd 3.86,1/9 (3.51)
N54T S55R D62P,4.27 nd 4.79,1/9 (5.29)
H35K S57T R101S,nd nd nd,0/9
F27Q S52A A61D,4.06 nd nd,3/9 (3.40)
G26Q G102S,nd nd nd,1/9 (4.55)
S52Y S57H Y60N,nd nd nd,0/9
H35Q I58G Y108V,nd nd nd,0/9
A33Q Y105E F106T,3.20 4.88 nd,3/9 (3.65)
Y32D V64T G103E,nd nd nd,0/9
W53R R101D Y108R,3.61 5.81 nd,3/9 (3.60)
T28L A61S V99H,nd nd 3.18,1/9 (4.04)

Extract of 4 entries:

| changes | log10 Kd, replicates | signal with controls |
|---|---|---|
| M34C N54R Y105S | nd nd nd | 1/9 (3.23) |
| G59L G104H D107K | nd nd nd | 2/9 (3.52) |
| G26W F29W G56F | nd 5.22 nd | 1/9 (4.87) |
| G103H D107H Y108R | 1.12 1.48 0.80 | 1/9 (3.75) |

In this assay the parent's reference entry averaged 1.86; its copy inside this library read 0.88.
Empty control strains, which show no peptide, gave a signal in 21% of pairings with library AAYL51; the median was 4.54 and 95% of these signals were weaker than 3.26. No background was subtracted. Also given: how often the same scFv was detected with the empty control strains, with their mean in brackets.